Literature values, collected in patent US8598119B2, “Methods and compositions for sleep disorders and other disorders” (priority 2008, dated 2013).

Amino acid sequences for entries named in this document (tags omitted).
UniProt P31652, whole entry: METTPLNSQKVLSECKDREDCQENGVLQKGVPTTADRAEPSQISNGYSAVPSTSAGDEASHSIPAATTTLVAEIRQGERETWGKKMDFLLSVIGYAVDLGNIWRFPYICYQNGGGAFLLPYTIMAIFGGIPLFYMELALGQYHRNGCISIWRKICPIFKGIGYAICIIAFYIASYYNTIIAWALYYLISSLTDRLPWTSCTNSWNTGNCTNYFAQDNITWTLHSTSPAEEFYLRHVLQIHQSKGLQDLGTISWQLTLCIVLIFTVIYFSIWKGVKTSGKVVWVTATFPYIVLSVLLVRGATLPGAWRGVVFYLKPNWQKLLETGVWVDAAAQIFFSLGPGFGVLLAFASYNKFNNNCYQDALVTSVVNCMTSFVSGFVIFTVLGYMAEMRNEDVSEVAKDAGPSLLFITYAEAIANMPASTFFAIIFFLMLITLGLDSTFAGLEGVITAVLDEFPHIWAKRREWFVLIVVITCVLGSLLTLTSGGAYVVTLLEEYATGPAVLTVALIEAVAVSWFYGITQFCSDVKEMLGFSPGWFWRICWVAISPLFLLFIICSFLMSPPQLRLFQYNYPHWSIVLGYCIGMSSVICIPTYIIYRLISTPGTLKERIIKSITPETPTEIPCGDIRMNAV

Molecular target: SERT (rat forebrain synaptosomal membrane) (Rattus norvegicus (Rat), UniProt P31652)
Settings: read-out: Ki of reference agents, rat forebrain SERT assay; assay validation / reference agents, Caliper assay #100-0056; cited from earlier work

Fc1ccc([C@@H]2CCNC[C@H]2COc2ccc3c(c2)OCO3)cc1
Ki: 0.1 nM
